Reference: ChEMBL document CHEMBL3414544, “PAINS in the assay: chemical mechanisms of assay interference and promiscuous enzymatic inhibition observed during a sulfhydryl-scavenging HTS” (J Med Chem, 2015)

Sequences of proteins named here, by UniProt entry; tags and fusion partners are left off. A change or cut given only in a name is not applied to a line headed by its entry.
UniProt Q03330: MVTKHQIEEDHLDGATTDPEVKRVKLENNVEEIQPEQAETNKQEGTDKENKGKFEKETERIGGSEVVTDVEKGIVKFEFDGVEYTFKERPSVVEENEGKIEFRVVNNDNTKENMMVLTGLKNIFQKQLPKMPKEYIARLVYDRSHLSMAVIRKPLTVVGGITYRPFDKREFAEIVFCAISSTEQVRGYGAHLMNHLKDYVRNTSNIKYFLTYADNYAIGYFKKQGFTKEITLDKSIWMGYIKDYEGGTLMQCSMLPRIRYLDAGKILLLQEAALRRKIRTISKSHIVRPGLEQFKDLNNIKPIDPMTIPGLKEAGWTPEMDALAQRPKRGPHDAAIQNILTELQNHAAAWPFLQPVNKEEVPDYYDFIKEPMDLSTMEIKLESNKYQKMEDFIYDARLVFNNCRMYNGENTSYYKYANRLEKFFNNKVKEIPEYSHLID

Experiments:
[1] = biological target: T1, Histone acetyltransferase RTT109 (Saccharomyces cerevisiae (strain ATCC 204508 / S288c) (Baker's yeast), UniProt Q07794); assay: Inhibition of Vps75-stimulated recombinant Saccharomyces cerevisiae histone acetyltransferase Rtt109 using Asf1-dH3-H4 as substrate assessed as coenzyme A production after 45 mins by CPM based HTS assay
T1 sequence (Q07794 whole entry): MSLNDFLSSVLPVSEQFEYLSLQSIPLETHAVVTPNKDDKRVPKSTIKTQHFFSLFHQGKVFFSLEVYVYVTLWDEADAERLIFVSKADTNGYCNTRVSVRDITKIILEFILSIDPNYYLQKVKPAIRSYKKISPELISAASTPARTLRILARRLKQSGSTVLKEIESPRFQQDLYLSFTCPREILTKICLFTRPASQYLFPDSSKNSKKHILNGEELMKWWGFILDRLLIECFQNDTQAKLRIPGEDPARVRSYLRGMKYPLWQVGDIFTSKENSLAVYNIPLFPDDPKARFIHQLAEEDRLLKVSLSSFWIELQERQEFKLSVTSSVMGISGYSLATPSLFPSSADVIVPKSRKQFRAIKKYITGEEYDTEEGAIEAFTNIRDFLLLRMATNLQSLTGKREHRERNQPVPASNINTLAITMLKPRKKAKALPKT
How it was run: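 Recombinant Rtt109–Vps75 at 50 nM, with Asf1–dH3–H4 as substrate and acetyl-CoA as acetyl donor. Buffer contained freshly prepared 0.01% Triton X-100. The CoA product was detected by fluorescence of its CPM adduct. Plates had Z′ ≥0.5. IC50 came from a four-parameter variable-slope fit.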

[2] = biological target: T2, Histone acetyltransferase RTT109 (Saccharomyces cerevisiae (strain ATCC 204508 / S288c) (Baker's yeast)) (UniProt Q07794); assay: Inhibition of Vps75-stimulated recombinant Saccharomyces cerevisiae histone acetyltransferase Rtt109 assessed as H3K56 acetylated product at […] after 45 mins by Slot bolt inhibiton assay
T2 sequence (whole entry): T1 sequence (Q07794 whole entry)

[3] = biological target: T2, Histone acetyltransferase RTT109 (Saccharomyces cerevisiae (strain ATCC 204508 / S288c) (Baker's yeast)); assay: Inhibition of Vps75-stimulated recombinant Saccharomyces cerevisiae histone acetyltransferase Rtt109 assessed as H3K27 acetylated product at […] after 45 mins by Slot bolt inhibiton assay
[4] = biological target: T2, Histone acetyltransferase RTT109 (Saccharomyces cerevisiae (strain ATCC 204508 / S288c) (Baker's yeast)); assay: Inhibition of Vps75-stimulated recombinant Saccharomyces cerevisiae histone acetyltransferase Rtt109 using [3H]-acetyl-CoA assessed as acetate incorporation […] by liquid scintillation counting in presence of 1 mM DTT
[5] = biological target: Histone acetyltransferase GCN5 (Saccharomyces cerevisiae S288c, UniProt Q03330); assay: Inhibition of yeast histone acetyltransferase Gcn5-Ada2-Ada3 complex using tetramer and [3H]-acetyl-CoA assessed as acetate incorporation after 30 mins by liquid scintillation counting
How it was run: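 Gcn5–Ada2–Ada3 at about 500 pM, with recombinant dH3–H4 tetramers as substrate and 2.5 μM [3H]-acetyl-CoA. Buffer was 50 mM Tris-HCl pH 8.0, KCl, EDTA, 1 mM DTT, 0.01% Triton X-100 and BSA. […] Quenched aliquots were spotted on P-81 filters and counted by scintillation; results are percent of DMSO control.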

Compound	IC50 [1] [µM]	other results
O=S(=O)(Nc1cc(Br)c(O)c2ccccc12)c1ccc2ccccc2c1	3.4	
CC(C)c1ccc(S(=O)(=O)Nc2cc(SCCC(=O)O)c(O)c3ccccc23)cc1		Activity [2]: Active; Activity [3]: Active
COc1ccc(Nc2nc(-c3ccc(C)cc3)[n+](Cc3ccccc3)s2)cc1.[Cl-]	9.2	
O=C(O)CSc1cc(NS(=O)(=O)c2ccc(C(=O)O)cc2)c2ccccc2c1O		Activity [4]: Active; Activity [2]: Active; Activity [3]: Active
Cn1c(Sc2ccc([N+](=O)[O-])c3nonc23)nnc1-c1ccccc1	1.9	
O=C(O)CSc1cc(NS(=O)(=O)c2ccc(Br)cc2)c2ccccc2c1O		Activity [4]: Active; Activity [2]: Active; Activity [3]: Active
O=S(=O)(Nc1cc(Sc2ccccc2)c(O)c2ccccc12)c1ccccc1	1.9	
Cc1nnc(SC2CC(=O)N(c3ccc(Br)cc3)C2=O)s1 (stereo not given)	11	
COc1cc(-c2nnc(SC3=CS(=O)(=O)c4ccccc43)o2)cc(OC)c1OC	10	
O=C(O)c1ccc(S(=O)(=O)Nc2cc(Br)c(O)c3ccccc23)cc1	2.8	
CCC(=O)OCCNc1cc(Sc2nnc(-c3ccccc3)s2)c2nonc2c1[N+](=O)[O-]	7	
CSc1nsc(SC2=CS(=O)(=O)c3ccccc32)n1	4.5	
[O-][Cl+3]([O-])([O-])[O-].c1ccc(C[n+]2sc(N(c3ccccc3)c3ccccc3)nc2-c2ccccc2)cc1	3.6	
O=S(=O)(Nc1cc(Sc2nnnn2-c2ccccc2)c(O)c2ccccc12)c1ccccc1		IC50 [5]: 4.3 µM
[Br-].c1ccc(Nc2nc(-c3ccccc3)[n+](-c3ccccc3)s2)cc1	3.4	
Cc1occc1-c1nnc(SC2=CS(=O)(=O)c3ccccc32)o1	7.5	
O=S(=O)(Nc1ccc(O)c(Br)c1)c1ccc(Cl)cc1	120	
O=S1(=O)C=C(Sc2nn(-c3ccccc3)c(=S)s2)c2ccccc21	7	

Compound	IC50 [1] [µM]	other results
O=C(O)CSc1cc(NS(=O)(=O)c2cccc([N+](=O)[O-])c2)c2ccccc2c1O		Activity [2]: Active; Activity [3]: Active
O=C1CC(Sc2nnc(-c3ccccc3)[nH]2)C(=O)N1c1ccc(Oc2ccccc2)cc1 (stereo not given)	8.6	
CC(C)(C)c1ccc(S(=O)(=O)Nc2cc(SCC(=O)O)c(O)c3ccccc23)cc1		Activity [2]: Active; Activity [3]: Active
O=c1[nH]c(Sc2c([N+](=O)[O-])cc(Br)c3nsnc23)nc2ccccc12	9.5	
CCOc1ccc(Nc2nc(-c3ccc(C)cc3)[n+](Cc3ccc([N+](=O)[O-])cc3)s2)cc1.[Br-]	3.8	
O=C1CC(Sc2nnnn2-c2ccccc2)C(=O)N1c1ccc([N+](=O)[O-])cc1 (stereo not given)	14	
CC(C)c1ccc(S(=O)(=O)Nc2cc(Sc3nc[nH]n3)c(O)c3ccccc23)cc1	1.4	
CC(C)c1ccc(S(=O)(=O)Nc2ccc(O)c(Br)c2)cc1	99	
Cc1ccc(-c2nc(Nc3ccccc3)s[n+]2CS(=O)(=O)c2ccccc2)cc1.[Cl-]	15	
Cc1ccc(-c2nc(N(c3ccccc3)c3ccccc3)s[n+]2CS(=O)(=O)c2ccccc2)cc1.[O-][Cl+3]([O-])([O-])[O-]	44	
O=C1CC(Sc2nnc(-c3ccccc3O)o2)C(=O)N1c1ccccc1 (stereo not given)	21	
Cc1ccc(S(=O)(=O)C2=CS(=O)(=O)c3ccccc32)cc1	10	
O=C(O)CCSc1cc(NS(=O)(=O)c2ccc(Br)cc2)c2ccccc2c1O		Activity [4]: Active; Activity [2]: Active; Activity [3]: Active
Cc1ccc(-c2nnc(SC3CC(=O)N(c4ccc(Oc5ccccc5)cc4)C3=O)[nH]2)cc1 (stereo not given)	20	
Cc1cc(C)c(S(=O)(=O)Nc2cc(Br)c(O)c3ccccc23)c(C)c1	2.8	
Cc1ccc(-c2nnc(SC3CC(=O)N(c4ccc5ccccc5c4)C3=O)[nH]2)cc1 (stereo not given)	12	
O=[N+]([O-])c1cc(Br)c2nsnc2c1Sc1nnnn1C1CCCCC1	3.1	
O=S(=O)(C[n+]1sc(Nc2ccc(Cl)cc2Cl)nc1-c1ccccc1)c1ccccc1.[Cl-]	9	

Activity calls are given as the source filed them.
